Read-outs that look alike come from different tables or passages of the source.
Experiments:
IP [1] = target: T1, IP (Homo sapiens, UniProt P43119); set-up: expressed in transfected cells; host or cells: CHO-K1 (crude membranes); details: literature value, reference not given; cited from earlier work
IP [2] = target: T1, IP; assay: Radioligand binding, human IP ([3H]-iloprost); set-up: expressed in transfected cells; host or cells: CHO-K1 (crude membranes); details: recombinant receptor membranes, read-out: measured Kd, human IP
Description: CHO-K1 cells expressing recombinant IP receptors were harvested, washed with ice-cold phosphate buffered saline, pH 7.4 (PBS), and then centrifuged at 48 000g for 20 min at 4 °C. The resulting cell pellet was then resuspended in ice-cold PBS containing 20 mM HEPES, pH 7.4, and 0.1 mM EDTA, homogenized on ice using a Brinkman Polytron, and centrifuged (48 000g for 20 min at 4 °C). This resuspension and centrifugation process was repeated one further time. Crude membrane pellets were stored at −80 °C until used for radioligand binding assays.
Assay incubations were terminated by rapid filtration through PerkinElmer GF/C filtration plates pretreated with 0.3% PEI, under vacuum pressure using a 96-well Packard filtration apparatus, followed by multiple washes with ice-cold wash buffer (PBS containing 20 mM HEPES and 0.1 mM EDTA, pH 7.4). Plates were then dried at 45 °C for a minimum of 2 h. Finally, 25 μL of BetaScint scintillation cocktail was added to each well and plates were counted in a Packard TopCount scintillation counter. In each competition study, test compounds were dosed at 10 concentrations with triplicate determinations at each test concentration.

By UniProt entry, the sequences of proteins in these tests, tags left out. Where a name states a change or a piece, a line headed by the entry shows the natural chain unless it says otherwise.
UniProt P43119: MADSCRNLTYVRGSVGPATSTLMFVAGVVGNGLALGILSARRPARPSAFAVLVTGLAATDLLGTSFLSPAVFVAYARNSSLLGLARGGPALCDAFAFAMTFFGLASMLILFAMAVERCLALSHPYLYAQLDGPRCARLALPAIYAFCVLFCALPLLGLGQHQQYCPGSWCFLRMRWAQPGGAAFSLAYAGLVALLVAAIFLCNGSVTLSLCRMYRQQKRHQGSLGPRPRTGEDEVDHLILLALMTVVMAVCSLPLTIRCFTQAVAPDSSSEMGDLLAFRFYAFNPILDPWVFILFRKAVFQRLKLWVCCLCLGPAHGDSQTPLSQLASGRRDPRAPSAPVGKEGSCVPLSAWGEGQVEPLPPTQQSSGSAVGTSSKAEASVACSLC

For [^3H]-iloprost [reference compound], the Kd (IP [1]) is listed as 9.82 nM and the Kd (IP [2]) is listed as 7 nM.
